Test results as given in patent US20240174727A1, “LONG-ACTING NATRIURETIC PEPTIDES AND USES THEREOF” (Eli Lilly and Company, priority 2022, published 2024).

Target: T1, human NPRA (Homo sapiens, UniProt P16066)
T1 construct: Full-Length cDNA Cloning and Generation of Cell Lines Overexpressing Natriuretic Peptide Receptors (NPRs); expressed in transfected cells; host or cells: Jump-in T-Rex HEK293 cells, pJTI R4 CMV-TO MCS pA vector, tetracycline induction
T1 sequence (P16066 33-1061): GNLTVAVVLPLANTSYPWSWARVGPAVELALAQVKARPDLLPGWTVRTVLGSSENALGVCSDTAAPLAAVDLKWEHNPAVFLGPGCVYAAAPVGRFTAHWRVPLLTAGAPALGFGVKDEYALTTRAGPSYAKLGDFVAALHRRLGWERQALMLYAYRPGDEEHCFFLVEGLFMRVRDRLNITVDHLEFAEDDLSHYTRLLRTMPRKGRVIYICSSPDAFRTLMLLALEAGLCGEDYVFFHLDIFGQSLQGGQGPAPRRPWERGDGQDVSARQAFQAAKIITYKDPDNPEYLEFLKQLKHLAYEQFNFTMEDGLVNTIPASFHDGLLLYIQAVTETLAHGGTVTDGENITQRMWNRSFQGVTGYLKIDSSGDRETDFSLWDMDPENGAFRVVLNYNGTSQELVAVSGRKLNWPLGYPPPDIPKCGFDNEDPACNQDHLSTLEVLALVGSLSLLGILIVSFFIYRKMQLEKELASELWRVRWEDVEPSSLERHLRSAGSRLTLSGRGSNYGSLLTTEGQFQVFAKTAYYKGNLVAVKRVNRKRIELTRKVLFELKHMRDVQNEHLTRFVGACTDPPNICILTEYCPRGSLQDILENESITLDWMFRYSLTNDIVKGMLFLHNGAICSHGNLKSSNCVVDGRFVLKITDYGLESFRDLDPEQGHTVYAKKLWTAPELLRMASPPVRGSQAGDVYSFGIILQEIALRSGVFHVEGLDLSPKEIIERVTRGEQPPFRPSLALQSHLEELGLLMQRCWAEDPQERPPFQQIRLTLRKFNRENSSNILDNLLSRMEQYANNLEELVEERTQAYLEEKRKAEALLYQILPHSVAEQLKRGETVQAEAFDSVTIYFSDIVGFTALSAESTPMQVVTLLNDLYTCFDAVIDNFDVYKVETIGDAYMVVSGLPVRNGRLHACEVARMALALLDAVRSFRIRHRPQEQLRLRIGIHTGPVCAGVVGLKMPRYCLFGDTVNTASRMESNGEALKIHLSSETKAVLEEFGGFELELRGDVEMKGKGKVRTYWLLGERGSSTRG
Experiment: Human NPRA cGMP activity assay (HTRF) in HEK293 cells overexpressing NPRA
Type: cell-based
Summary of the method: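 cGMP measured by HTRF and scaled between buffer (minimum) and 100 nM amidated rat ANP (maximum). Polypeptides in 10-fold steps from 10 μM to 1 pM, 0.5% DMSO, 0.5 mM IBMX, 40 min at room temperature, on induced NPRA-overexpressing HEK293 cells.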

[1] = cGMP Assay (EC50, pM) w/BSA hNPRA, assay buffer with 0.1% BSA
[2] = cGMP Assay (EC50, pM) w/Casein hNPRA, assay buffer with 0.1% casein

Structure (SMILES) | EC50 [1] | EC50 [2]
CC[C@H](C)[C@@H]1NC(=O)[C@H](CCCNC(=N)N)NC(=O)[C@H](CC(=O)O)NC(=O)[C@H]([C@@H](C)CC)NC(=O)[C@H](CCCNC(=N)N)NC(=O)CNC(=O)CNC(=O)[C@H](Cc2ccccc2)NC(=O)[C@@H](NC(=O)[C@H](CO)NC(=O)[C@H](CO)NC(=O)[C@H](CCCNC(=N)N)NC(=O)[C@H](CCCNC(=N)N)NC(=O)[C@H](Cc2ccncc2)NC(=O)[C@H](CO)NC(=O)CNC(=O)[C@H](CCCCN)NC(=O)[C@H](CCC(=O)O)NC(=O)[C@H](CCCCN)NC(=O)[C@H](CCC(=O)O)NC(=O)[C@H](CCCCN)NC(=O)[C@H](CCC(=O)O)NC(=O)CC[C@H](NC(=O)CCCCCCCCCCCCCCCCCCC(=O)O)C(=O)O)CSCSC[C@@H](C(=O)N2CCC[C@H]2C(=O)N[C@@H](CO)C(=O)N[C@@H](Cc2ccccc2)C(=O)N[C@@H](CCCNC(=N)N)C(=O)N[C@@H](Cc2c[nH]cn2)C(=O)NCC(=O)NCC(=O)N[C@@H](CO)C(=O)N[C@@H](CO)C(=O)NCC(=O)N[C@@H](C)C(=O)N2CCC[C@H]2C(=O)N2CCC[C@H]2C(=O)N2CCC[C@H]2C(=O)N[C@@H](CO)C(N)=O)NC(=O)CNC(=O)[C@H](CC(C)C)NC(=O)CNC(=O)[C@H](CO)NC(=O)[C@H](CCC(N)=O)NC(=O)[C@H](Cc2c[nH]cn2)NC(=O)CNC1=O [Example 66] | 140000 pM | 826 pM
CC[C@H](C)[C@@H]1NC(=O)[C@H](CCCNC(=N)N)NC(=O)[C@H](CC(=O)O)NC(=O)[C@H]([C@@H](C)CC)NC(=O)[C@H](CCCNC(=N)N)NC(=O)[C@H](CCCCN)NC(=O)CNC(=O)[C@H](Cc2ccccc2)NC(=O)[C@@H](NC(=O)[C@H](CO)NC(=O)[C@H](CO)NC(=O)[C@H](CCCNC(=N)N)NC(=O)CCNC(=O)[C@H](CCCCN)NC(=O)[C@H](CCC(=O)O)NC(=O)CCOCCOCCOCCOCCOCCOCCOCCOCCOCCOCCOCCOCCOCCOCCOCCOCCOCCOCCOCCOCCOCCOCCOCCOCCNC(=O)CNC(=O)[C@H](CCCCN)NC(=O)[C@H](CCC(=O)O)NC(=O)[C@H](CCCCN)NC(=O)[C@H](CCC(=O)O)NC(=O)[C@H](CCCCN)NC(=O)[C@H](CCC(=O)O)NC(=O)CC[C@H](NC(=O)CCCCCCCCCCCCCCCCCCC(=O)O)C(=O)O)CSCSC[C@@H](C(=O)N2CCC[C@H]2C(=O)N[C@@H](CO)C(=O)N[C@@H](Cc2ccccc2)C(=O)N[C@@H](CCCNC(=N)N)C(=O)N[C@@H](Cc2c[nH]cn2)C(=O)NCC(=O)NCC(=O)N2CCC[C@H]2C(N)=O)NC(=O)CNC(=O)[C@H](CC(C)C)NC(=O)CNC(=O)[C@H](CO)NC(=O)[C@H](Cc2ccc(O)cc2)NC(=O)[C@H](Cc2c[nH]cn2)NC(=O)CNC1=O [Example 129] | 2960 pM | 1010 pM
